Binding of CDR-mutated scFvs to a peptide of the spike HR2 region

Data: MIT Lincoln Laboratory AlphaSeq set, Engelhart et al. 2022, doi:10.1038/s41597-022-01779-4, as distributed in FLAb.

All variants were tested on one target, the spike HR2 peptide PDVDLGDISGINAS (SARS-CoV-2).

Each scFv is VH, the linker GGGGSGGGGSGGGGS, VL, as in the parent Ab-14, and differs from it in the CDRs of the light chain only.
VH: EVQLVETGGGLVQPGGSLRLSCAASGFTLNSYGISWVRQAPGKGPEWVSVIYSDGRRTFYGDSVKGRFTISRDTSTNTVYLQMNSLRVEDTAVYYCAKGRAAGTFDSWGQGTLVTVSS
VL: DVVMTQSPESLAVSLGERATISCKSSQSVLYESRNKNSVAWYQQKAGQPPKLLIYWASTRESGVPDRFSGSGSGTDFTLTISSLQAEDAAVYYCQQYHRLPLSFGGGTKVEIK

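The parent was found by panning a naive human phage display library on the peptide. Variants in AAYL50 differ from the parent at up to three CDR positions; double and triple changes were sampled at random. Affinity was read by AlphaSeq, a pooled yeast mating assay with surface-displayed partners. Binding brings cells together so that they mate, and sequencing counts the barcode pairs among the diploids. Scores were corrected for input abundance and mapped to Kd with protein pairs of known affinity run in the same pool. There are three technical replicates.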

Variants are written as CDR1, CDR2 and CDR3 of the light chain (limits as in the source). Parent: KSSQSVLYESRNKNSVA, WASTRES, QQYHRLPLS.
This list gathers variants with a substitution at L102 (VL, numbered from residue 1).
The read-out is the apparent dissociation constant on a log10 scale (nM): the lower, the stronger.
An entry "ND" has no value in the source: the pair was not observed among the diploids in that replicate. This suggests poor binding but is not conclusive.
For reference, the parent read 0.65 as the reference entry and 1.68 as a member of this library.
Background: pairings of library AAYL50 with three empty control strains gave a value in 18% of cases (median 4.19, 5th percentile 2.99). Values in that range, when seen in few replicates, are hard to tell from nonspecific mating.

- KSSQSVLYESRNKNSVA / WASTIES / QQYHRLPDS: 4.06, ND, ND
- KSSQKVLYESRNKNSVA / WASTRES / QQYHRLPYS: 1.46, 1.39, 1.73
- KSSQSVLYESRNKNIVA / KASTRES / QQYHRLPIS: ND, 3.07, 4.39
- KSSQSVLDESRNKNSVA / WASTRGS / QQYHRLPES: 0.73, 0.78, 0.78
- KSFQSVLYESRNKNSVA / WASTRES / QQDHRLPWS: 4.64, 4.91, ND
- KSSQSVLLEFRNKNSVA / WASTRES / QQYHRLPHS: ND, ND, ND
- KSSQSVLYESRDKNSVA / WASTRFS / QQYHRLPMS: 1.91, 2.00, 2.15
- KSSQSVLYEPRNKNSVA / WASIRES / QQYHRLPGS: 0.65, 1.09, 1.12
- KSSQSVLYELRNKNSVA / WISTRES / QQYHRLPGS: ND, 2.88, 4.32
- KSSQSVLYEKRNKNSVA / WASTRES / QQYHRKPFS: ND, 3.20, 2.29
- KASQSVLYESRNKNSGA / WASTRES / QQYHRLPVS: 2.89, ND, ND
- KSGQSVLYESRNKNSVA / WASTRES / KQYHRLPDS: ND, ND, 4.61
- KSSQSVLMESRNKNSVA / WASTRES / CQYHRLPRS: 1.90, 1.99, 2.20
- KSSQYVLYESRNKNSVA / WADTRES / QQYHRLPSS: 3.80, ND, 4.33
- KSSQSVLYESRNKNSVA / WASTRES / QVVHRLPES: ND, ND, ND
- KSSQSVLYESRNKNSVA / GASTRGS / QQYHRLPQS: 3.58, ND, ND
- KSSQSVLYESRNKCSVA / WASTRES / QQYHRWPYS: ND, ND, ND
- KSSQSVLYEIRNKNSVA / WASGRES / QQYHRLPES: 4.48, ND, ND
- KLSQSVLYESRNKNSVG / WASTRES / QQYHRLPMS: ND, ND, ND
- KSSQSVLYEYRNVNSVA / WASTRES / QQYHRLPMS: 2.25, 2.10, 2.21
- KSYQSVLYESRNKNSVA / WASTRES / QPYHRLPKS: ND, 4.52, 4.56
- KSSQGFLYESRNKNSVA / WASTRES / QQYHRLPFS: ND, ND, ND
- KSSQSVLYESPNKNSEA / WASTRES / QQYHRLPAS: 5.26, ND, 5.22
- KSSQSVLYESRNKNSVA / WASTRES / YQYHRLPDS: ND, 2.75, ND
- KSSQSVLYESRNGNSVA / WASTRES / QQYHRWPSS: 5.33, ND, ND
- KTSQSVLYESRNKNSVA / WASTREP / QQYHRLPKS: ND, 2.76, ND
- KSSQSVLYESRNKNGVA / WASTRES / QQYHRLGES: 0.21, 0.44, 0.38
- KSSQSVLYESRNKNSVA / WSSMRES / QQYHRLPNS: ND, ND, ND
- KSSQSVLYEYDNKNSVA / WASTRES / QQYHRLPAS: 2.06, 1.73, 2.10
- KSSQSVLYESRNKNSVA / WASTRES / QQYNRLPKR: ND, ND, 3.13
- KSSQSVLYESRNRNSVA / WASTRES / QQYHRYPIS: ND, ND, ND
- KSGQSVLYESRNKNSVA / WADTRES / QQYHRLPQS: ND, 4.14, ND
- KSSQSVLYESRNKNSVA / PASTRES / QQYHRLPPS: ND, ND, ND
- KSSQSPLYEARNKNSVA / WASTRES / QQYHRLPAS: 4.47, 3.99, 4.21
- KSSMSVLKESRNKNSVA / WASTRES / QQYHRLPNS: ND, 4.22, ND
- KSSQSVLYESRNKNSVA / WISTRES / QQYHRLPVS: 6.11, ND, 4.22
- KSSQSVLYENRMKNSVA / WASTRES / QQYHRLPRS: 1.25, 1.27, 1.41
- KSSGSVLYESRNKNSVA / WASTRES / QQYHHLPYS: 1.47, 1.47, 1.81
- KSSQSVLYPSRNKNSVA / WASTRES / QQYHNLPSS: ND, ND, ND
- KSSQSVLYESRNKKSVA / WASTRES / QQYHRLPMR: ND, ND, ND
- KSSQSVLYESRNKNSVA / WAWTRES / QEYHRLPTS: ND, ND, ND
- KSDQSRLYESRNKNSVA / WASTRES / QQYHRLPQS: ND, 3.62, 4.75
- KSSQSVLYESRNSNSVA / WASTRES / RQYHRLPFS: ND, ND, ND
- KSSQSVLYESRNKNSDA / WAGTRES / QQYHRLPIS: 4.78, ND, ND
- KSSQSVLYESRNKNSVA / WASTREC / SQYHRLPDS: ND, ND, ND
- KLSQSVLYESRNKNSVA / CASTRES / QQYHRLPSS: -0.09, 0.23, -0.07
- KSSQSVNPESRNKNSVA / WASTRES / QQYHRLPES: 2.33, 2.24, 1.79
- KSSQSVLYESRNKNSVA / WASTEES / QQYERLPYS: ND, 3.98, 5.91
- KSSQSVAYESRNRNSVA / WASTRES / QQYHRLPTS: 1.18, 1.22, 1.27

The closing 3 entries, repeated:

CDR-L1	CDR-L2	CDR-L3	log10 Kd, replicates
KSSQSVNPESRNKNSVA	WASTRES	QQYHRLPES	2.33, 2.24, 1.79
KSSQSVLYESRNKNSVA	WASTEES	QQYERLPYS	ND, 3.98, 5.91
KSSQSVAYESRNRNSVA	WASTRES	QQYHRLPTS	1.18, 1.22, 1.27